For experiment [1], the target named is T1, Cholesteryl ester transfer protein (Homo sapiens, UniProt P11597).
T1 sequence (P11597 whole entry): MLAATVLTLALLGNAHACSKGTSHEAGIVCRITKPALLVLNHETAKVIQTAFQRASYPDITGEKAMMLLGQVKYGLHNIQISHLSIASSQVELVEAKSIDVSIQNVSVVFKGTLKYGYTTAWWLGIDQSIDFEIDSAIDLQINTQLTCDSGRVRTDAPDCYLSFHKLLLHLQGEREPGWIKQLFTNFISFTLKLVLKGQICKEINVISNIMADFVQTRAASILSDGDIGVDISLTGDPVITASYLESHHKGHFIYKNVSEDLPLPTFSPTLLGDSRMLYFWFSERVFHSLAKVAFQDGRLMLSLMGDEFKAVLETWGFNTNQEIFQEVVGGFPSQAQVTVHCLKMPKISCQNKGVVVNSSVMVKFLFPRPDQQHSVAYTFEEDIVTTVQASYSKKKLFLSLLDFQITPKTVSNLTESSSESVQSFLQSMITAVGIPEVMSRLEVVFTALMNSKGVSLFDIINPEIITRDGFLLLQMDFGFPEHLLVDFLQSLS
Put plainly: Inhibition of CETP-mediated transfer of [3H]cholesteryl ester from HDL donar particles to LDL acceptor particles in presence of buffer.

Experiment [2] has as its target T1, Cholesteryl ester transfer protein. Put plainly: Inhibition of CETP-mediated transfer of [3H]cholesteryl ester from HDL donar particles to LDL acceptor particles in presence of human serum.
Experiment [3] shares this target. Briefly: Inhibition of CETP-mediated transfer of [3H]cholesteryl ester from HDL donar particles to LDL acceptor particles.

The results in this text go back to ChEMBL document CHEMBL1152778, “Design, synthesis, and biological evaluation of (2R,alphaS)-3,4-dihydro-2-[3-(1,1,2,2-tetrafluoroethoxy)phenyl]-5-[3-(trifluoromethoxy)-phenyl]-alpha-(trifluoromethyl)-1(2H)-quinolineethanol as potent and orally active cholesteryl ester transfer protein inhibitor” (J Med Chem, 2009).

On to `CCc1cc(Oc2cccc(N(Cc3cccc(OC(F)(F)C(F)F)c3)CC(O)C(F)(F)F)c2)ccc1Cl` (stereo not drawn), for which the half-inhibitory concentration (IC50) – broadly, the concentration that inhibits the measured activity by half – in experiment [1] is 3 nM; in experiment [2], 59 nM; in experiment [3], 3 nM.
